In PubChem BioAssay AID504891 (National Center for Advancing Translational Sciences (NCATS), 2011):
Values joined by “and” are separate entries in the source; they are usually repeats but may differ in a detail not shown here. Equal entries are not always repeated. This is a selection; strong and weak results do not stand in their true shares. Some tests of the compounds listed are not included; inactive here does not mean inactive elsewhere. Records with an inconclusive call do not appear. Active and inactive are the calls of the source. The call rests on the fitted dose curve; in most records, active means well fitted inhibition curve with a large enough effect in the polarisation, with a control signal flat (not every such curve was filed as active); inconclusive means small, poorly fitted or top-dose-only effect, or effect the other way, or a change in a side signal; inactive means no such curve, though single readings can be large or run the other way; the % refers to the polarisation.
On the % scale 0 is the no-effect control and ±100 the full control effect.

Chains of the proteins cited; added tags and fusions are not shown.
UniProt Q13526, whole entry: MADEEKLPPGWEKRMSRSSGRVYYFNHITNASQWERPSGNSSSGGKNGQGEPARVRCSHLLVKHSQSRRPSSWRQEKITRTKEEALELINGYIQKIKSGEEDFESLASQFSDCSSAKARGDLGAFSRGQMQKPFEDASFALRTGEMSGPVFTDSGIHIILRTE

These compounds were tested against Peptidyl-prolyl cis-trans isomerase NIMA-interacting 1 (Homo sapiens) (UniProt Q13526) (assay: qHTS Assay to Find Inhibitors of Pin1). Conditions: Pin1 FP peptide displacement, HiFluor488, 10 min; at 115 µM (top of the series).
O=C(NCC1(N2CCCCC2)CCCCC1)c1cc(F)c(F)cc1Cl was tested, and the activity, negative = inhibition was inactive: -5.11%. For C=CCN1CCN(CCOC(=O)C(O)(c2ccccc2)c2ccccc2)CC1, the activity, negative = inhibition was inactive: 7.73%. For O=C(NCC1(N2CCCCC2)CCCCC1)c1cccc(Br)c1, the activity, negative = inhibition was inactive: 0.477%. CCN1CCCC(OC(=O)C2(O)c3ccccc3C=Cc3ccccc32)C1 (stereo not given) was tested, and the activity, negative = inhibition was inactive: 0.79%. Cc1cc(C(=O)NCC2(N3CCCCC3)CCCCC2)ccc1[N+](=O)[O-] was tested, and the activity, negative = inhibition was inactive: 0.668%. With CCOc1cccc(C(=O)NCC2(N(C)C)CCCCC2)c1 the activity, negative = inhibition was inactive: -4.29%. For COc1ccc(C(=O)NCC2(N(C)C)CCCCC2)cc1, the activity, negative = inhibition was inactive: -0.811%. In the case of CN(C)c1ccc(C(=O)NCC2(N(C)C)CCCCC2)cc1, the activity, negative = inhibition is reported as inactive: 1.05%. In the case of CN(C)C1CCCC1OC(=O)C(O)(c1ccccc1)c1ccccc1 (stereo not given), the activity, negative = inhibition is reported as inactive: -0.621%. Cc1ccccc1C(=O)NCC1(N2CCCCC2)CCCCC1 was tested, and the activity, negative = inhibition was inactive: 3.12%. For CN(C)C1(CNC(=O)c2ccccc2[N+](=O)[O-])CCCCC1, the activity, negative = inhibition was inactive: -7.96%. In the case of CCCCOc1ccccc1C(=O)NCC1(N(C)C)CCCCC1, the activity, negative = inhibition is reported as inactive: 0.189%. For CC(C)N1C(=O)CC2(CCN(CCOC(=O)C(O)(c3ccccc3)c3ccccc3)CC2)C1=O, the activity, negative = inhibition was inactive: 3.53%. With COc1cc(SC)ccc1C(=O)NCC1(N(C)C)CCCCC1 the activity, negative = inhibition was inactive: -1.75%. In the case of CCN(CC)CC(C)C(C)OC(=O)C(O)(c1ccccc1)c1ccccc1 (stereo not given), the activity, negative = inhibition is reported as inactive: -1.79%. CN(C)C1(CNC(=O)c2cccc(Cl)c2)CCCCC1 was tested, and the activity, negative = inhibition was inactive: -5.59%. For CN(C)C1(CNC(=O)c2ccccc2F)CCCCC1, the activity, negative = inhibition was inactive: 1.64%. For Cc1ccc(C(=O)NCC2(N3CCCCC3)CCCCC2)cc1, the activity, negative = inhibition was inactive: -0.674%. O=C(NCC1(N2CCCCC2)CCCCC1)c1cc([N+](=O)[O-])ccc1Cl was tested, and the activity, negative = inhibition was inactive: 4.17%. With CN1[C@@H]2CC[C@H]1CC(OC(=O)C(O)(c1ccccc1)c1ccccc1)C2 (stereo not given in full) the activity, negative = inhibition was inactive: 0.859%. With COc1ccc(Br)c(C(=O)NCC2(N3CCCCC3)CCCCC2)c1 the activity, negative = inhibition was inactive: 23.3%. COc1cc(C(=O)NCC2(N(C)C)CCCCC2)cc(OC)c1OC was tested, and the activity, negative = inhibition was inactive: -5.54%. With Cc1cccc(C(=O)NCC2(N(C)C)CCCCC2)c1 the activity, negative = inhibition was inactive: -0.694%. For CN(C)c1cccc(C(=O)NCC2(N(C)C)CCCCC2)c1, the activity, negative = inhibition was inactive: -5.03%. For O=C(OCCN1CCCC1)C(O)(c1ccccc1)c1ccccc1, the activity, negative = inhibition was inactive: -3.32%. For CC(C)Oc1ccc(C(=O)NCC2(N(C)C)CCCCC2)cc1, the activity, negative = inhibition was inactive: 3% and inactive: 2.46%. For O=C(OC1CN2CCC1CC2)C(CO)(c1ccccc1)c1ccccc1 (stereo not given), the activity, negative = inhibition was inactive: -0.715%. COc1cccc(C(=O)NCC2(N3CCOCC3)CCCCC2)c1 was tested, and the activity, negative = inhibition was inactive: 20.3%. CC(C)COc1ccc(C(=O)NCC2(N(C)C)CCCCC2)cc1 was tested, and the activity, negative = inhibition was inactive: 2.69%. With COc1ccc(C(=O)NCC2(N(C)C)CCCCC2)cc1Cl the activity, negative = inhibition was inactive: -3.5%. For COc1ccc(Cl)cc1C(=O)NCC1(N(C)C)CCCCC1, the activity, negative = inhibition was inactive: -0.322%. In the case of COc1cccc(C(=O)NCC2(N3CCCCC3)CCCCC2)c1, the activity, negative = inhibition is reported as inactive: -3.99%. In the case of O=C(NCC1(N2CCCCC2)CCCCC1)c1cccc(Cl)c1, the activity, negative = inhibition is reported as inactive: 2.76%. CN(C)C1(CNC(=O)c2ccc(Br)cc2)CCCCC1 was tested, and the activity, negative = inhibition was inactive: -2.9%. COc1cc(C(=O)NCC2(N(C)C)CCCCC2)c([N+](=O)[O-])cc1OC was tested, and the activity, negative = inhibition was inactive: -7.45%.
